Data reported in patent US4983614A, “Benzhydryloxyethylpiperidine derivatives, process for their preparation and pharmaceutical compositions, in which they are present” (priority 1986, dated 1991).

Experiments:
[1] = test system: histamine-induced bronchospasm; experiment: Bronchospasm by inhalation of a histamine solution; format: in vivo, guinea-pig; conditions: Cavia porcellus, po; guinea-pigs, p.o.; comparative test; read-out: Bronchospasm by oral administration ED50
Protocol: J--Bronchospasm by inhalation of a histamine solution
Guinea-pigs are placed in a closed chamber into which histamine is introduced as an aerosol, and only those which show very distinct signs of asphyxia within four minutes are selected.
The substance to be studied is administered to groups of guinea-pigs thirty minutes before a further period in the chamber in order to check the resistance to histamine. A guinea-pig is considered to be protected if it resists the histamine aerosol for ten minutes without showing signs of asphyxia.
A 50% effective dose is calculated from the results obtained.

[2] = test system: lethal dose of histamine (histaminic shock); experiment: Antihistaminic activity (protection from a lethal dose of histamine, histaminic shock); format: in vivo, guinea-pig; conditions: Cavia porcellus, po; guinea-pigs, p.o.; comparative test; read-out: Histaminic shock by oral administration ED50
Protocol: K--Antihistaminic activity
This test assesses the dose which protects fifty per cent of guinea-pigs from a lethal dose of histamine.
The product is administered thirty minutes before the intravenous injection of histamine hydrochloride (1 mg/kg).
The 50% effective dose is calculated from the results obtained.

CC(C)(C)c1ccc(C(O)CCCN2CCC(C(O)(c3ccccc3)c3ccccc3)CC2)cc1 (centres unmarked) [Terfenadine]
ED50 [1]: 1.6 mg/kg | ED50 [2]: 2.58 mg/kg
